Assay results as given in BindingDB's records for doi:10.1080/14756360802218334 (Cardiff University, 2009).

Molecular target: T1, Cytochrome P450 26A1 (Homo sapiens, UniProt O43174)
T1 sequence (O43174 whole entry): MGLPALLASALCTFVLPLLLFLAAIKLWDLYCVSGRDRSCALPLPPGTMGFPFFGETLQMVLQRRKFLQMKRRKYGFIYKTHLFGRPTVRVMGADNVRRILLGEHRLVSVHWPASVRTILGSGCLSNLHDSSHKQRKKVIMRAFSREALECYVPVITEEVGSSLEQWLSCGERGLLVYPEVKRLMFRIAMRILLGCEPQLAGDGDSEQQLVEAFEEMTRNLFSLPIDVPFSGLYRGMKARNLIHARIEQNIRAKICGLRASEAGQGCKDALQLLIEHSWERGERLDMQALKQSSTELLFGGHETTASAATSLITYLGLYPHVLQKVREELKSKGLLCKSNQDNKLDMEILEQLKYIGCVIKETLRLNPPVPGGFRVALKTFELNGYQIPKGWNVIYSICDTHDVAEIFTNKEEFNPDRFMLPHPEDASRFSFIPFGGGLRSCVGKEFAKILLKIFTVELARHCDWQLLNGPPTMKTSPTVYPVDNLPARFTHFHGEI
Assay: Cell Assay
Method: The imidazole derivatives were evaluated for their retinoic acid metabolism inhibitory activity using a MCF-7 cell assay, using radiolabelled all-trans retinoic acid as the substrate and liarozole and R115866 as standards for comparison.

Clc1cccc(C(c2ccc3[nH]cnc3c2)n2ccnc2)c1 (stereo unspecified) [6-((3-chlorophenyl)(1H-imidazol-1-yl)methyl)-1H-benzo[d]imidazole]
IC50: 7 µM
